Laboratory results as given in US20100099847A1 (Kyowa Hakko Bio Co., Ltd., priority 2006, published 2010).

Assays:
[1] = volume median diameter
Experimental: This is synonymous with volume median diameter, and it was measured using a laser diffraction and scattering particle diameter analyzer, the LMS-24 SK Laser Micron Sizer (Seishin Enterprise Co. Ltd.) and expressed as a cumulative 50% volume particle diameter.

[2] = width of approximately 300 crystals
Experimental: The crystals were observed and photographed using a VH-8000 digital microscope (Keyence Corporation). The width of approximately 300 crystals was measured and calculations performed.

## Glutathione (gamma-L-glutamyl-L-cysteinyl glycine) [Example 1]
[1]
  Average particle diameter: 52 μm
[2]
  Average width: 25 μm
